In ChEMBL document CHEMBL3351619 (J Med Chem, 2014):

Tested on: 5-HT2C receptor (Homo sapiens)
Assay: Displacement of [3H]mesulergine from 5-HT2C (unknown origin) at 1 uM after 120 mins

## O=C1Cc2ccccc2N1CC/C=C/CCN1CCc2ccccc2C1
  inhibition: 0%
